Patent publication US20200354426A1 (MEDIMMUNE LIMITED, priority 2016, published 2020)

System: healthy volunteers
Settings: for Subjects with TEAE: Abdominal distension / Subjects with TEAE: Abdominal pain / Subjects with TEAE: Application site erosion / Subjects with TEAE: Arrhythmia / Subjects with TEAE: Atrioventricular block second degree / Subjects with TEAE: Cardiac Disorders / Subjects with TEAE: Decreased appetite / Subjects with TEAE: Diarrhoea / Subjects with TEAE: Dizziness / Subjects with TEAE: Gastrointestinal Disorders / Subjects with TEAE: Headache / Subjects with TEAE: Immune System Disorders / Subjects with TEAE: Infections and infestations / Subjects with TEAE: Injury associated with device / Subjects with TEAE: Injury, poisoning and procedural complications / Subjects with TEAE: Metabolism and nutrition disorders / Subjects with TEAE: Musculoskeletal and connective tissue disorders / Subjects with TEAE: Musculoskeletal chest pain / Subjects with TEAE: Nasopharyngitis / Subjects with TEAE: Nausea / Subjects with TEAE: Nervous system disorders / Subjects with TEAE: Oropharyngeal pain / Subjects with TEAE: Procedural dizziness / Subjects with TEAE: Respiratory, thoracic and mediastinal disorders / Subjects with TEAE: Seasonal allergy / Subjects with TEAE: Ventricular extrasystoles / Subjects with TEAE: Vomiting / TEAE: Subject with at least one event: N = 6

Substance: L-Histidyl-L-seryl-L-glutaminylglycyl-L-threonyl-L-phenylalanyl-L-threonyl-L-seryl-L-alpha-aspartyl-(N6-[N-(1-oxohexadecyl)-L-gamma-gutamyl])L-lysy-L-sery-L-alpha-glutamyl-L-tyrosyl-L-leucyl-L-alpha-aspartyl-L-seryl-L-alpha-glutamyl-L-arginyl-L-alanyl-L-arginyl-L-alpha-L-aspartyl-L-phenylalanyl-L-valyl-L-alanyl-L-tryptophyl-L-leucyl-L-alpha-glutamyl-L-alanylglycylglycine [Peptide G933]
- Subjects with TEAE: Abdominal distension (5 μg): 0
- Subjects with TEAE: Abdominal pain (5 μg): 0
- Subjects with TEAE: Application site erosion (5 μg): 0
- Subjects with TEAE: Arrhythmia (5 μg): 0
- Subjects with TEAE: Atrioventricular block second degree (5 μg): 0
- Subjects with TEAE: Cardiac Disorders (5 μg): 0
- Subjects with TEAE: Decreased appetite (5 μg): 0
- Subjects with TEAE: Diarrhoea (5 μg): 0
- Subjects with TEAE: Dizziness (5 μg): 0
- Subjects with TEAE: Gastrointestinal Disorders (5 μg): 0
- Subjects with TEAE: Headache (5 μg): 1 (16.7%)
- Subjects with TEAE: Immune System Disorders (5 μg): 0
- Subjects with TEAE: Infections and infestations (5 μg): 1 (16.7%)
- Subjects with TEAE: Injury associated with device (5 μg): 0
- Subjects with TEAE: Injury, poisoning and procedural complications (5 μg): 0
- Subjects with TEAE: Metabolism and nutrition disorders (5 μg): 0
- Subjects with TEAE: Musculoskeletal and connective tissue disorders (5 μg): 0
- Subjects with TEAE: Musculoskeletal chest pain (5 μg): 0
- Subjects with TEAE: Nasopharyngitis (5 μg): 1 (16.7%)
- Subjects with TEAE: Nausea (5 μg): 0
- Subjects with TEAE: Nervous system disorders (5 μg): 1 (16.7%)
- Subjects with TEAE: Oropharyngeal pain (5 μg): 0
- Subjects with TEAE: Procedural dizziness (5 μg): 0
- Subjects with TEAE: Respiratory, thoracic and mediastinal disorders (5 μg): 0
- Subjects with TEAE: Seasonal allergy (5 μg): 0
- Subjects with TEAE: Ventricular extrasystoles (5 μg): 0
- Subjects with TEAE: Vomiting (5 μg): 0
- TEAE: Subject with at least one event (5 μg): 2 (33.3%)
- Subjects with TEAE: Abdominal distension (10 μg): 0
- Subjects with TEAE: Abdominal pain (10 μg): 1 (16.7%)
- Subjects with TEAE: Application site erosion (10 μg): 0
- Subjects with TEAE: Arrhythmia (10 μg): 0
- Subjects with TEAE: Atrioventricular block second degree (10 μg): 1 (16.7%)
- Subjects with TEAE: Cardiac Disorders (10 μg): 1 (16.7%)
- Subjects with TEAE: Decreased appetite (10 μg): 0
- Subjects with TEAE: Diarrhoea (10 μg): 1 (16.7%)
- Subjects with TEAE: Dizziness (10 μg): 1 (16.7%)
- Subjects with TEAE: Gastrointestinal Disorders (10 μg): 1 (16.7%)
- Subjects with TEAE: Headache (10 μg): 0
- Subjects with TEAE: Immune System Disorders (10 μg): 0
- Subjects with TEAE: Infections and infestations (10 μg): 0
- Subjects with TEAE: Injury associated with device (10 μg): 0
- Subjects with TEAE: Injury, poisoning and procedural complications (10 μg): 0
- Subjects with TEAE: Metabolism and nutrition disorders (10 μg): 0
- Subjects with TEAE: Musculoskeletal and connective tissue disorders (10 μg): 0
- Subjects with TEAE: Musculoskeletal chest pain (10 μg): 0
- Subjects with TEAE: Nasopharyngitis (10 μg): 0
- Subjects with TEAE: Nausea (10 μg): 0
- Subjects with TEAE: Nervous system disorders (10 μg): 1 (16.7%)
- Subjects with TEAE: Oropharyngeal pain (10 μg): 0
- Subjects with TEAE: Procedural dizziness (10 μg): 0
- Subjects with TEAE: Respiratory, thoracic and mediastinal disorders (10 μg): 0
- Subjects with TEAE: Seasonal allergy (10 μg): 0
- Subjects with TEAE: Ventricular extrasystoles (10 μg): 0
- Subjects with TEAE: Vomiting (10 μg): 0
- TEAE: Subject with at least one event (10 μg): 3 (50.0%)
- Subjects with TEAE: Abdominal distension (30 μg): 0
- Subjects with TEAE: Abdominal pain (30 μg): 0
- Subjects with TEAE: Application site erosion (30 μg): 1 (16.7%)
- Subjects with TEAE: Arrhythmia (30 μg): 0
- Subjects with TEAE: Atrioventricular block second degree (30 μg): 0
- Subjects with TEAE: Cardiac Disorders (30 μg): 0
- Subjects with TEAE: Decreased appetite (30 μg): 0
- Subjects with TEAE: Diarrhoea (30 μg): 0
- Subjects with TEAE: Dizziness (30 μg): 1 (16.7%)
- Subjects with TEAE: Gastrointestinal Disorders (30 μg): 0
- Subjects with TEAE: Headache (30 μg): 1 (16.7%)
- Subjects with TEAE: Immune System Disorders (30 μg): 1 (16.7%)
- Subjects with TEAE: Infections and infestations (30 μg): 0
- Subjects with TEAE: Injury associated with device (30 μg): 0
- Subjects with TEAE: Metabolism and nutrition disorders (30 μg): 0
- Subjects with TEAE: Musculoskeletal and connective tissue disorders (30 μg): 1 (16.7%)
- Subjects with TEAE: Musculoskeletal chest pain (30 μg): 1 (16.7%)
- Subjects with TEAE: Nasopharyngitis (30 μg): 0
- Subjects with TEAE: Nausea (30 μg): 0
- Subjects with TEAE: Nervous system disorders (30 μg): 1 (16.7%)
- Subjects with TEAE: Oropharyngeal pain (30 μg): 0
- Subjects with TEAE: Procedural dizziness (30 μg): 1 (16.7%)
- Subjects with TEAE: Respiratory, thoracic and mediastinal disorders (30 μg): 0
- Subjects with TEAE: Seasonal allergy (30 μg): 1 (16.7%)
- Subjects with TEAE: Ventricular extrasystoles (30 μg): 0
- Subjects with TEAE: Vomiting (30 μg): 0
- TEAE: Subject with at least one event (30 μg): 4 (66.7%)
- subjects with vomiting (100 μg single dose): 1 subject
- vomiting episodes (100 μg single dose): 1 episode
- Subjects with TEAE: Abdominal distension (100 μg): 0
- Subjects with TEAE: Abdominal pain (100 μg): 0
- Subjects with TEAE: Application site erosion (100 μg): 0
- Subjects with TEAE: Arrhythmia (100 μg): 1 (16.7%)
- Subjects with TEAE: Atrioventricular block second degree (100 μg): 0
- Subjects with TEAE: Cardiac Disorders (100 μg): 1 (16.7%)
- Subjects with TEAE: Decreased appetite (100 μg): 0
- Subjects with TEAE: Diarrhoea (100 μg): 0
- Subjects with TEAE: Dizziness (100 μg): 0
- Subjects with TEAE: Gastrointestinal Disorders (100 μg): 1 (16.7%)
- Subjects with TEAE: Headache (100 μg): 1 (16.7%)
- Subjects with TEAE: Immune System Disorders (100 μg): 0
- Subjects with TEAE: Infections and infestations (100 μg): 0
- Subjects with TEAE: Injury associated with device (100 μg): 0
- Subjects with TEAE: Injury, poisoning and procedural complications (100 μg): 0
- Subjects with TEAE: Metabolism and nutrition disorders (100 μg): 0
- Subjects with TEAE: Musculoskeletal and connective tissue disorders (100 μg): 0
- Subjects with TEAE: Musculoskeletal chest pain (100 μg): 0
- Subjects with TEAE: Nasopharyngitis (100 μg): 0
- Subjects with TEAE: Nausea (100 μg): 1 (16.7%)
- Subjects with TEAE: Nervous system disorders (100 μg): 1 (16.7%)
- Subjects with TEAE: Oropharyngeal pain (100 μg): 0
- Subjects with TEAE: Procedural dizziness (100 μg): 0
- Subjects with TEAE: Respiratory, thoracic and mediastinal disorders (100 μg): 0
- Subjects with TEAE: Seasonal allergy (100 μg): 0
- Subjects with TEAE: Ventricular extrasystoles (100 μg): 0
- Subjects with TEAE: Vomiting (100 μg): 1 (16.7%)
- TEAE: Subject with at least one event (100 μg): 2 (33.3%)
- subjects with vomiting (150 μg single dose): 4 subjects
- vomiting episodes (150 μg single dose): 9 episodes
- subjects with significant vomiting (150 μg single dose (2 of 6 subjects)): 33.3%
- Subjects with TEAE: Abdominal distension (150 μg): 2 (33.3%)

Read-outs that look alike come from different tables or passages of the source.
